Earlier results in US20140030311A1, “MONOLITHIC INTRAVAGINAL RINGS COMPRISING PROGESTERONE AND METHODS OF MAKING AND USES THEREOF” (TEVA WOMEN'S HEALTH, INC., priority 2009, published 2014).

Test system: IVF cycles
Details: luteal phase support in IVF cycles; Soliman et al. 1994; cited from earlier work

For “hCG: human chorionic gonadotropin, used for luteal phase support”, the “pregnancy rates versus placebo” value is listed as “significantly higher pregnancy rates than placebo”.
